Results on eight molecules are retold here after patent US5084454A, “2-(piperidinylmethyl)-4-phenyl-2,3-dihydro-4H-1,4-benzoxazines useful as antipsychotics” (Farmitalia Carlo Erba S.r.l., priority 1988, dated 1992).

SMILES strings stand for the structures. Like-named read-outs stand apart in the source and are kept apart here.

Series [1] deals with apomorphine-induced climbing behaviour in mice. Briefly: antagonism of apomorphine-induced climbing behaviour in mice. It counts as in vivo, mouse. To be noted: for ED50: Mus musculus, po; for ED50 Climbing: oral. On the procedure: The activity of the compounds of the present invention on the central nervous system was also evaluated by following for instance the technique of Protais P. et al. (Psychopharmacology, 50, 1 (1976).
The toxicity of the compounds of the invention is negligible, therefore they can be safely used in therapy. Nine hours food deprived mice were treated orally with single administration of increasing doses, then housed and normally fed. The orientative acute toxicity (LD50) was assessed on the seventh day after the treatment and resulted, in general, higher than 600 mg/kg. Following Table 2 summarizes the biological data obtained according to the above mentioned tests for some compounds of the present invention; Haloperidol has been evaluated in the same tests for comparative purposes.

A further series has as its target T1, D2 dopamine receptor (Rattus norvegicus, UniProt P61169).
T1 construct: from tissue
Briefly: D2 dopamine receptor binding affinity, [3H]Spiperone.

A short description of series [2]: in vivo. The conditions noted are these: mouse, po, ED50 Catalepsy.
Another series has as its target T2, D1 dopamine receptor (Rattus norvegicus, UniProt P18901).
T2 construct: from tissue
Description: D1 dopamine receptor binding affinity, [3H]cis-Flupenthixol. To be noted: read-out: IC50 D1 [3H]cisFlu.

The target of a further series is T3, 5HT2 serotonine receptor (Rattus norvegicus, UniProt P14842).
T3 construct: from tissue
Description: 5HT2 serotonine receptor binding affinity, [3H]Ketanserine. The conditions noted are these: read-out: IC50 5HT2 [3H]Ket. The procedure: The activity of the compounds of the present invention was evaluated for example in a series of receptorial binding affinity tests.
J. Pharmacol. 1977, 46, 377; Hyttel, J. Life Sci. 1981, 28, 563; Pedigo et al. Journal of Neurochemistry, 1981, 36, 220; Leysen et al. Molecular Pharmacology, 1981, 21, 301; Battaglia et al. Life Science, 1983, 33, 2011; Greengrass P., Brener R. Eur. J. Pharmacol., 1979, 55, 323; and Perry B. D., U'Prichard D. C. Eur. J. Pharmacol. 1981, 76, 461]
In the table cis-Flu. means cis-Flupenthixol; Spip. means Spiperone; Serot. means Serotonin; Ket. means Ketanserine; Praz. means Prazosin and Yohim. means Yohimbine, respectively. The above internal FCE codes refer to the following compounds

Series [3] can be described thus: in vivo. The conditions noted are these: mouse, po.
The subject of series [4] is cataleptic activity in the mouse. The conditions noted are these: in vivo, po; for ED50 Catalepsy: 6 h.
For a further series, the system named is mice. The conditions noted are these: datum given according to Il Farmaco Ed. Sc. 1976, 31, 442; 10080 min; cited from earlier work.

For `O=C1NCN(c2ccccc2)C12CCN(CC1CN(c3ccccc3)c3ccccc3O1)CC2` (centres unmarked) [FCE 24867, 2-(1-phenyl-1,3,8-triazaspiro[4,5]decan-4-one-8-yl)-methyl-4-phenyl-2,3-dihydro-4H-1,4-benzoxazine], in series [1], the ED50 – broadly, the dose that gives a 50% effect, or the effect in half of the subjects – came out at 4.5 mg/kg. For the same molecule, the IC50 (commonly the point on the concentration scale where inhibition reaches its midpoint) on D2 dopamine receptor (IC50 D2 [3H]Spip.) was found to be 8 nM; on D1 dopamine receptor, 1400 nM; at 5HT2 serotonine receptor, 40 nM. In the series “in vivo [2]”, the 50% effect level (ED50 at 6 h) was put at a dose of 30.8 mg/kg.
Consider `O=C1NCN(c2ccccc2)C12CCN(CC1CN(c3ccc(F)cc3)c3ccc(F)cc3O1)CC2` (centres unmarked) [FCE 25452, 2-(1-phenyl-1,3,8-triazaspiro[4,5]decan-4-one-8-yl)-methyl-4-(4-fluorophenyl)-7-fluoro-2,3-dihydro-4H-1,4-benzoxazine], for which the values for the IC50 on D2 dopamine receptor (IC50 D2 [3H]Spip.), at D1 dopamine receptor and at 5HT2 serotonine receptor were 9 nM, 900 nM and 20 nM, respectively.
For the molecule `O=C1NCN(c2ccccc2)C12CCN(CC1CN(c3ccccc3)c3ccccc3O1)CC2` (single isomer, unassigned; (-)) [FCE 25896, (-) 2-(1-phenyl-1,3,8-triazaspiro[4,5]decan-4-one-8-yl)-methyl-4-phenyl-2,3-dihydro-4H-1,4-benzoxazine], the “ED50 Climbing” value in series [1] is 1.8 mg/kg/os. In addition, the LD50 at 168 h in the series “in vivo [3]” is over 800 mg/kg. In addition, the results for the IC50 on D2 dopamine receptor (read-out: IC50 D2 [3H]Spip.), at D1 dopamine receptor and at 5HT2 serotonine receptor were 200 nM, over 10000 nM and 80 nM, respectively. The “(ED50 Catalepsy / ED50 Climbing)” value in series [4] was determined as 12.6. In series [4], this molecule had an ED50 Catalepsy of 22.7 mg/kg.
In series [1], `OC1(c2cccc(C(F)(F)F)c2)CCN(CC2CN(c3ccccc3)c3ccccc3O2)CC1` (centres unmarked) [FCE 25456, 2-[4-(3-trifluoromethyl-phenyl)-4-hydroxy-piperidin-1-yl]-methyl-4-phenyl-2,3-dihydro-4H-1,4-benzoxazine] yielded an ED50 of 2.5 mg/kg. The molecule further registered an LD50 at 168 h in “in vivo [3]” of over 800 mg/kg. For the same molecule, the IC50 is 1 nM on D2 dopamine receptor (IC50 D2 [3H]Spip.), over 10000 nM at D1 dopamine receptor and 100 nM at 5HT2 serotonine receptor. Moreover, the “(ED50 Catalepsy / ED50 Climbing)” value in series [4] is recorded as 8. The molecule further displayed an ED50 at 6 h in “in vivo [2]” of 20 mg/kg.
Turning to `O=C1NCN(c2ccccc2)C12CCN(CC1CN(c3ccccc3)c3ccccc3O1)CC2` (single isomer, unassigned; (+)) [FCE 25895, (+) 2-(1-phenyl-1,3,8-triazaspiro[4,5]decan-4-one-8-yl)-methyl-4-phenyl-2,3-dihydro-4H-1,4-benzoxazine], the “ED50 Climbing” value in series [1] was determined as 3.8 mg/kg/os. The values for the IC50 at D2 dopamine receptor (IC50 D2 [3H]Spip.), at D1 dopamine receptor and on 5HT2 serotonine receptor were 5 nM, 1200 nM and 6 nM, respectively. This molecule also had an ED50 Catalepsy in series [4] of 61 mg/kg.
Consider `O=C(CCCN1CCC(O)(c2ccc(Cl)cc2)CC1)c1ccc(F)cc1` [Haloperidol, reference compound], for which, in the series on mice, the LD50 was 71 mg/kg/os. This molecule displayed an ED50 in series [1] of 0.5 mg/kg. Further, in the series “in vivo [2]”, the ED50 at 6 h was found to be 2.2 mg/kg.
On to `O=C1NCN(c2ccccc2)C12CCN(CC1CN(c3ccc(F)cc3)c3ccccc3O1)CC2` (centres unmarked) [FCE 25676, 2-(1-phenyl-1,3,8-triazaspiro[4,5]decan-4-one-8-yl)-methyl-4-(4-fluorophenyl)-2,3-dihydro-4H-1,4-benzoxazine], for which, in series [1], it took a dose of 4.9 mg/kg to reach the 50% effect level (ED50). The IC50 worked out at 2 nM at D2 dopamine receptor (IC50 D2 [3H]Spip.), 1000 nM on D1 dopamine receptor and 20 nM on 5HT2 serotonine receptor. Also, it took a dose of 75 mg/kg to reach the 50% effect level in “in vivo [2]” (ED50 at 6 h).
Regarding `O=C1NCN(c2ccccc2)C12CCN(CC1CN(c3ccccc3)c3ccc(F)cc3O1)CC2` (centres unmarked) [FCE 25848, 2-(1-phenyl-1,3,8-triazaspiro[4,5]decan-4-one-8-yl)-methyl-4-phenyl-7-fluoro-2,3-dihydro-4H-1,4-benzoxazine], the IC50 at D2 dopamine receptor (IC50 D2 [3H]Spip.) is 40 nM; on D1 dopamine receptor, 2400 nM; on 5HT2 serotonine receptor, 30 nM.
